The record followed here is PubChem BioAssay AID624351 (Southern Research Specialized Biocontainment Screening …, 2012).

The entries are a selection whose mix differs from that of the whole data set. Active and inactive are the calls of the source.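 The calls were made as follows: active = inhibition of 30% or more at any tested dose; inconclusive = primary hits over the limit that were never retested; inactive = the rest.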

The nature of the assay: ADP Hunter readout inhibition without MgcRacGAP – biochemical, coupled enzyme counter-screen, artefact control for MgcRacGAP inhibitor project, dose response (AID 624351).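 Also: signal is the ADP detection kit reading of free GDP without any GAP enzyme; 0% = median positive control wells and 100% = median negative control wells.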 Particulars: fluorescence, no MgcRacGAP; at 80 µM (top of the series).
For `C[N+]1=C2C=CC=CC=C2SC12C([N+](=O)[O-])=CC([N+](=O)[O-])=C[C-]2[N+](=O)[O-]` (stereo unspecified), the inhibition was inactive: 4.41%.

As a reminder, the inhibition is the change of the read-out against control, counted positive when it falls.
